Measurements as given in patent US7659249B2, “Membrane-permeable NFAT inhibitory peptide” (Japan Science and Technology Agency, priority 2002, dated 2010).

Legend:
[1] = AoB rat, 1.5 mg/kg hypodermically every other day for 4 weeks
[2] = 10 mg/kg peptide comprising 11R-VIVIT and FITC, intraperitoneal, 6 hours after injection

`CC[C@H](C)[C@H](NC(=O)[C@@H](NC(=O)[C@@H]1CCCN1C(=O)[C@H](Cc1c[nH]cn1)NC(=O)[C@@H]1CCCN1C(=O)CNC(=O)[C@H](C)NC(=O)[C@H](CCSC)NC(=O)CNC(=O)CNC(=O)CNC(=O)[C@H](CCCNC(=N)N)NC(=O)[C@H](CCCNC(=N)N)NC(=O)[C@H](CCCNC(=N)N)NC(=O)[C@H](CCCNC(=N)N)NC(=O)[C@H](CCCNC(=N)N)NC(=O)[C@H](CCCNC(=N)N)NC(=O)[C@H](CCCNC(=N)N)NC(=O)[C@H](CCCNC(=N)N)NC(=O)[C@H](CCCNC(=N)N)NC(=O)[C@H](CCCNC(=N)N)NC(=O)[C@@H](N)CCCNC(=N)N)C(C)C)C(=O)N[C@H](C(=O)N[C@H](C(=O)N[C@H](C(=O)NCC(=O)N1CCC[C@H]1C(=O)N[C@@H](Cc1c[nH]cn1)C(=O)N[C@@H](CCC(=O)O)C(=O)N[C@@H](CCC(=O)O)C(=O)O)[C@@H](C)O)[C@@H](C)CC)C(C)C` [11R-VIVIT] showed a BUN [1] of 16.6 ± 2.71 mg/dL, a Cr [1] of 0.28 ± 0.02 mg/dL and a GOT [1] of 99.2 ± 6.24 IU/l. For the same compound, the GPT [1] was 55.8 ± 9.95 IU/l and the “fluorescence of FITC in sections of the spleen, the lymph node, the liver, the kidney and the heart” value [2] was “fluorescence of FITC was observed”.
